Results taken from patent publication US9617262B2, “Antibacterial cyclopental[C]pyrrole substituted 3,4-dihydro-1H-[1,8]naphthyridinones” (Janssen Sciences Ireland UC, priority 2011, dated 2017).

Experiment: In vivo pharmacokinetic and oral bioavailability
Conditions: male Swiss mice
Experimental: The in vivo pharmacokinetics and oral bioavailability of the compound of the examples was/is investigated in male Swiss mice (fed) following single intravenous (i.v.) bolus and oral (p.o.) administration. For the i.v. and p.o. solution formulations, the compound was/is dissolved in a 20% HP-β-CD solution. The pH of the formulations was/is around pH 4. All i.v. formulations were isotonic.

**Q.** With `O=C1CCc2cc(/C=C/C(=O)N3C[C@H]4CC(c5ccsc5)=C[C@H]4C3)cnc2N1` as the compound, how does the AUC0-inf (i.v. 2.5 mg/kg) read?
**A.** 5037 ng·h/mL

**Q.** And the “Half life (t1/2)” value (i.v. 2.5 mg/kg)?
**A.** 1.3 h

**Q.** And the AUC0-inf (p.o. 10 mg/kg)?
**A.** 14527 ng·h/mL

**Q.** And the Cmax (p.o. 10 mg/kg)?
**A.** 2670 ng/mL

**Q.** What about the “Half life (t1/2)” value (p.o. 10 mg/kg) of the same compound?
**A.** 2.8 h

**Q.** What about the Tmax (p.o. 10 mg/kg) of the same compound?
**A.** 1.0 h
